Experimental data: patent US20190071499A1 (published 2019)

What was measured:
human IFN-α8 [1] = molecular target: T1, human IFN-α8 (human, UniProt P32881 24-189); assay: cell-based or functional assay
human IFN-α8 [2] = molecular target: T1, human IFN-α8; assay: ELISA or LIPS (Table 7 summary)
human IFN-α8 [3] = molecular target: T1, human IFN-α8; assay: ELISA or LIPS (Table 7 summary; ELISA at 1 µg/ml MAB in paragraph 37)

IC 50 (ng/ml), ISRE dual luciferase reporter assay (human IFN-α8 [1]) [ng/mL] | binding result (human IFN-α8 [2]) | further results | Binder
205 |  |  | 26B9 (antibody, human IgG1, kappa, V domains shown, human-derived IgG1, kappa; also called MAB 26B9; hMAB 26B9) VH: QILLQESGPGLVKPTETLSLTCSVSGDSISDSSHYWAWIRQPPGKGPEWIGSVYFSSMTHYNPSLKSRVSISVDKPKNQFSLKVTSVTVADTATYYCARQALARVGAMNWFDPWGQGSLVTVSS VL: DIIMTQSPDSLPVSLGEGVTINCKSSQSVFFTSSNKSCLAWYQQKPGKSPKLLIYWASTRQSGVPDRFRGSGSGTDFSLTITSLQAEDVAVYFCQQCQTSPPTFGGGTRLEIKR
571 |  |  | 8H1 (antibody, human IgG1, kappa, V domains shown) VH: QVQLVQSGAEVKKPGASVKVSCKASGQTFTSDDINWVRQAPGQGLEWMGWRNPNTQDTGYAQKFHGRLTLTSNSSISTSYLELSGLRSEDTAVYYCARAGTSTLTGHYFALGVWGQGTTVIVSS VL: DIQLTQSPSSLSASVGDRVTITCQATQDISKYLNWYQQKPGKVPKLLIYETSNLEVGVPSRFSGSGSGTHFTLTISSLQAEDFATYYCQQYENFPFTFGGGTKVEIKR
0.86 |  |  | 12H5 (antibody, human IgG1, kappa, V domains shown) VH: QVQLIQSGPEVKRPGASVKVSCKASENTFDTHYINWVRQAPGQGLTWLGWLNPTTGKTGFPQKFKGRVILTSDTSLNTAYMEVSRLTSEDTAVYFCARVLKLSDEYNYGFDVWGQGTTVIVSS VL: DIQVTQSPSSLSASIGDRVTITCRASQNILTFINWYQHKPGKAPKLLIYAASVLQNEVPSRFSGSGSGTDFTLTITSLQPDDFGTYYCQQTYLTPQCSFGQGTKVEIKR
4.02 |  |  | 50E11 (antibody, human IgG1, kappa, V domains shown) VH: QVQLVQSGAEMKKPGSSVKVSCKDFGGTFSVYGVNWVRQAPGQGLEWMGGLIPVIGPANYAQKFQGRITITADESTSTAYMELSSLRFDDTAIYYCVRDDNEYWGQGTLVTVSS VL: EMVLTQSPATLSLSPGERATLSCRASQTVSTFLAWYQQKPGQVPRLLVYDISSRANGTPARFSGGGSGTDFTLTISSLELEDFAVYYCQWRSNWPPSLTFGGGTRVEIKR
 | binds |  | 25C3 (antibody, human IgG1, kappa, V domains shown, human-derived IgG1, kappa; also called MAB 25C3; hMAB 25C3) VH: EMQLMESGGGLVQPGGSLRLSCVASGFTFKSFAMSWVRQAPGKGLEWVASVGSQGGSKYYAPSVKGRFSISRDNSNNTLYVQMNSLGVEDTAFYYCVKETDAVATMDALDMWGQGTLVIVST VL: DIRVTQSPSSLSASVGDRVSISCQTSQSVNIYLNWYQQRPGKGPQLLISAASTLQSGVPSRFSGSGSGTDFILTIISLQPEDSASYYCQQGYITPYTFGQGTKVEIKR
 | binds |  | 31B4 (antibody, human IgG1, kappa, V domains shown, human-derived IgG1, kappa; clonally related to 26B9; also called MAB 31B4; hMAB 31B4) VH: QIQLQESGPGLVRPTETLSLTCSVSGDSISQSSHYWAWIRQPPGKGPEWIGSVYFSSMTHYNPSLTSRVSISIDKAMNKFSLKVTSVTVADTATYYCARQALARVGAMNWFDPWGQGSLVTVSS VL: DIIMTQSPESLPVSLGEGVTINCKSSQSVFFTSSNRSCLAWYQQKPGQSPKLLIYWASTRQSGVPDRFTGSGSGTDFSLTIAGLQVEDVAVYFCQQCHASPPTFGGGTRLELRR
 | binds |  | 5D1 (antibody, human IgG1, kappa, V domains shown, human-derived IgG1, kappa; also called MAB 5D1; hMAB 5D1) VH: EVQLVQAGAEVKAPGESLRISCKVSGYTFTSYWISWVRQIPGKGLEWMVKIDPRDSYTIYNPSFQGHVSISVDKSITTVYLQWSSLQASDTAIYYCVRHYLTQSLVDYFDHWGQGTLVAVSS VL: DIQMTQSPSSLSASVGDSVTITCRASQSVSNYFHWYRQKPGKAPELLIYSASNLQTGVPSRFTGSGSGTECTLTITSLQPDDFATYYCQQTHGYPFTFGQGTKLDVRR
 |  | binding result (human IFN-α8 [3]): no binding | 13B11 (antibody, human IgG1, kappa, V domains shown, human-derived IgG1, kappa; also called MAB 13B11; hMAB 13B11) VH: DVQLLQSGGGLIQPGGSLRLSCAASGFTFKDYAMSWVRQAPGKGLEWVSVISRSGNIVDYVDSVKGRFTVSRDNSNNTLFLQMDGLRADDTAIYYCAKPKDMIVVVPAGFDSWGQGTLVSVSS VL: DIQMTQFPSTLSASVGDSVTITCRASQSISAWLAWYQQKPGKAPKLLIYKGSRLENGVPSRFSGSGSGTEFTLTIGSLQPDDFATYYCQQYKTWTFGQGTKVEIKR
